Source: patent US7304061B2, “Heterocyclic inhibitors of ERK2 and uses thereof” (Vertex Pharmaceuticals Incorporated, priority 2002, dated 2007)

Amino acid sequences for entries named in this document (tags omitted).
UniProt P28482, whole entry: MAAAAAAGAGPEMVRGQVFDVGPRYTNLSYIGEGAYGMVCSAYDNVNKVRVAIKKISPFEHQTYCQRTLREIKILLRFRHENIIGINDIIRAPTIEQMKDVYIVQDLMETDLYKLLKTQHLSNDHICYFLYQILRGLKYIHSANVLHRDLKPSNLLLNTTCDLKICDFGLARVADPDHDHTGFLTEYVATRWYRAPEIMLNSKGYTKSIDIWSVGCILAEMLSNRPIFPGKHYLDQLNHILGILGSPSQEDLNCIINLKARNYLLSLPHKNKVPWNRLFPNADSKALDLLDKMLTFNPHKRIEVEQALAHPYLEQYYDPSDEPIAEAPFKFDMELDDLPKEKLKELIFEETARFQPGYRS

These molecules were tested against ERK2 (Homo sapiens, UniProt P28482) (assay: ERK2 inhibition assay (spectrophotometric coupled-enzyme assay)). Details: activated ERK2 10 nM, 65 μM ATP, 200 μM erktide peptide, 30° C., pH 7.5.
Method: Compounds were assayed for the inhibition of ERK2 by a spectrophotometric coupled-enzyme assay (Fox et al (1998) Protein Sci 7, 2249). In this assay, a fixed concentration of activated ERK2 (10 nM) was incubated with various concentrations of the compound in DMSO (2.5%) for 10 min. at 30° C. in 0.1 M HEPES buffer, pH 7.5, containing 10 mM MgCl2, 2.5 mM phosphoenolpyruvate, 200 μM NADH, 150 μg/mL pyruvate kinase, 50 μg/mL lactate dehydrogenase, and 200 μM erktide peptide. The reaction was initiated by the addition of 65 μM ATP. The rate of decrease of absorbance at 340 nm was monitored. The Ki and IC50 were evaluated from the rate data as a function of inhibitor concentration.

First: Cc1cnc(O)nc1-c1c[nH]c(C(=O)N[C@H](CO)c2ccccc2)c1
Second: Cc1cnc(SC(C)C)nc1-c1c[nH]c(C(=O)N[C@H](CO)c2ccccc2)c1
The IC50 of the first is higher: > 1000 nM for the first, < 100 nM for the second.

Cc1cnc(C2CC2)nc1-c1c[nH]c(C(=O)N[C@H](CO)c2ccccc2)c1 and CCCSc1ncc(C)c(-c2c[nH]c(C(=O)N[C@H](CO)c3ccccc3)c2)n1 cannot be ordered by IC50: < 100 nM for the first, < 100 nM for the second.

Cc1cnc(Sc2ccccc2)nc1-c1c[nH]c(C(=O)N[C@H](CO)c2ccccc2)c1 and Cc1cnc(-c2ccccc2)nc1-c1c[nH]c(C(=O)N[C@H](CO)c2ccccc2)c1 [Compound I-24, 4-(5-Methyl-2-phenyl-pyrimidin-4-yl)-1H-pyrrole-2 carboxylic acid (2-hydroxy-1-(S)-phenyl-ethyl)-amide] cannot be ordered by IC50: < 100 nM for the first, < 100 nM for the second.

First: CSc1ncc(C)c(-c2c[nH]c(C(=O)NCc3ccc(F)c(F)c3)c2)n1
Second: Cc1ccc(-c2ncc(C)c(-c3c[nH]c(C(=O)N[C@H](CO)c4ccccc4)c3)n2)cc1
The IC50 of the first is higher: > 1000 nM for the first, < 100 nM for the second.

Compared with CCCS(=O)(=O)c1ncc(C)c(-c2c[nH]c(C(=O)N[C@H](CO)c3ccccc3)c2)n1, Cc1cnc(-c2cccnc2)nc1-c1c[nH]c(C(=O)N[C@H](CO)c2ccccc2)c1 is lower in IC50: > 1000 nM for the first, < 100 nM for the second. The second is the more potent here.

With Cc1cnc(-c2ccc(C(N)=O)cc2)nc1-c1c[nH]c(C(=O)N[C@H](CO)c2ccccc2)c1 the IC50 was < 100 nM.

O=C(N[C@H](CO)c1ccccc1)c1cc(-c2nc(N3CCOCC3)ncc2-c2cc(Cl)cc(Cl)c2)c[nH]1 and O=C(NCc1cccc(C(F)(F)F)c1)c1cc(-c2nc(N3CCOCC3)ncc2-c2cc(Cl)cc(Cl)c2)c[nH]1 cannot be ordered by Ki: > 1000 nM for the first, > 1000 nM for the second.

Compared with Cc1cnc(N2CCOCC2)nc1-c1c[nH]c(C(=O)NCc2cccc3ccccc23)c1, Cc1cnc(N2CCOCC2)nc1-c1c[nH]c(C(=O)NCc2ccc(F)c(F)c2)c1 is higher in Ki: < 100 nM for the first, 100 to 1000 nM for the second.

Cc1cnc(N2CCOCC2)nc1-c1c[nH]c(C(=O)NCc2ccc3c(c2)OCO3)c1 and O=C(NCc1ccc2c(c1)OCO2)c1cc(-c2nc(N3CCOCC3)ncc2-c2cc(Cl)cc(Cl)c2)c[nH]1 cannot be ordered by Ki: > 1000 nM for the first, > 1000 nM for the second.

First: Cc1ncc(C)c(-c2c[nH]c(C(=O)N[C@H](CO)c3ccccc3)c2)n1
Second: Cc1cnc(N2CCOCC2)nc1-c1c[nH]c(C(=O)NCc2cccc(C(F)(F)F)c2)c1
The Ki of the first is lower: < 100 nM for the first, 100 to 1000 nM for the second. The first binds more tightly here.

O=C(NCc1ccc2c(c1)CCO2)c1cc(-c2nc(N3CCOCC3)ncc2-c2cc(Cl)cc(Cl)c2)c[nH]1 was tested, and the Ki was > 1000 nM.
